ChEMBL document CHEMBL5029184, “Colloidal Aggregators in Biochemical SARS-CoV-2 Repurposing Screens” (J Med Chem, 2021)

Species on record: Sus scrofa
Experiment: Inhibition of porcine heart malate dehydrogenase assessed as critical aggregation concentration preincubated for 5 min followed by nicotinamide adenine dinucleotide addition and monitered for 90 sec by spectrophotometric method
Format: tissue-based

SMILES | CAC [µM]
O=C1CCc2ccc(OCCCCN3CCN(c4cccc(Cl)c4Cl)CC3)cc2N1 | 15
Oc1c(I)cc(Cl)c2cccnc12 [CLIOQUINOL] | 15
